In test [1] the target is IgG1 heavy chain with CH3 construct 69 (L351D, L368E) (human) [IgG part: P01857]. Kind of test: native MS; combination 3 co-expressed (A: VH MF1337, B: VH MF1122).
The target of test [2] is IgG1 heavy chain with CH3 construct 43 (T366K) (human) [IgG part: P01857]. As to the kind of experiment: SDS-PAGE of protein A-purified supernatant; construct expressed alone.
In test [3] the target is IgG1 heavy chain with CH3 construct 66 (V397D) (human) [IgG part: P01857]. Kind of test: native MS; transfection ZR: vectors XV+XIX co-expressed.
In test [4] the target is IgG1 heavy chain with CH3 construct 62 (T394K) (human) [IgG part: P01857]. Described as above.
The target of test [5] is IgG1 heavy chain with CH3 construct 17 (S354K, Y349K) (human) [IgG part: P01857]. Kind of test: native MS; transfection ZQ: vectors XII+XVIII co-expressed.
Test [6] has as its target IgG1 heavy chain with CH3 construct 65 (S354D, Y349D) (human) [IgG part: P01857]. The test is described as above.

Turning to “IgG1 heavy chain with CH3 construct 43 (T366K) (from UniProt P01857-1)”, in test [1], the % AB found came to 87%. The substance also registered a % half molecule in test [2] of 67.1%.
For “IgG1 heavy chain with CH3 construct 62 (T394K) (from UniProt P01857-1)”, the AC found (%) in test [3] amounted to 42%. In test [4], the AA found (%) turned out to be 20%.
In turn, “IgG1 heavy chain with CH3 construct 17 (S354K, Y349K) (from UniProt P01857-1)” showed an AA found (%) in test [5] of 4%. In test [6], this substance showed an AC found (%) of 51%.
